Test results published in ChEMBL document CHEMBL1146418, “A new flavone C-glycoside and antiplatelet and vasorelaxing flavones from Gentiana arisanensis” (J Nat Prod, 1997).

Assays:
Aorta [1] = test: Inhibition of noradrenaline-induced Wistar rat thoracic aorta tonic contraction in high K+ medium pretreated 15 mins before addition of Ca2+ and K+ relative to control; assay type: functional, tissue-based
Platelet = test: Inhibition of arachidonic acid-induced platelet aggregation in rabbit plasma preincubated 3 mins before addition of thrombin by turbidimetric method; assay type: functional, cell-free; conditions: Oryctolagus cuniculus
Aorta [2] = test: Inhibition of Ca2+-induced Wistar rat thoracic aorta contraction in high K+ medium pretreated 15 mins before addition of Ca2+ and K+; assay type: functional, tissue-based
Aorta [3] = test: Inhibition of noradrenaline-induced Wistar rat thoracic aorta phasic contraction in high K+ medium pretreated 15 mins before addition of Ca2+ and K+ relative to control; assay type: functional, tissue-based

Measured: Activity

O=c1cc(-c2ccc(O)c(O)c2)oc2cc(O)cc(O)c12 [LUTEOLIN]
active: Aorta [1] Dose-dependent effect | Platelet Dose-dependent effect | Aorta [2] Dose-dependent effect | Aorta [3] Dose-dependent effect
